The results in this text go back to patent publication US4283422A (priority 1979, dated 1981).

The series relates to MDCK cells.

Where a name gives a salt, the structure may show the parent alone.

Take `NC12CC3CC(CC(C3)C1)C2` [Amantadine hydrochloride]: the relative toxicity entry is given as “twice as toxic as 3-dimethylamino-4-homoisotwistane hydrochloride”.
